Measured values as given in patent publication US20090099157A1, “TETRAHYDRO-PYRAZOLO-PYRIDINE THIOETHER MODULATORS OF CATHEPSIN S” (priority 2007, published 2009).

The chains behind the UniProt entries cited, without tags or fusion partners. Residues count along the entry.
UniProt P25774, 115-331: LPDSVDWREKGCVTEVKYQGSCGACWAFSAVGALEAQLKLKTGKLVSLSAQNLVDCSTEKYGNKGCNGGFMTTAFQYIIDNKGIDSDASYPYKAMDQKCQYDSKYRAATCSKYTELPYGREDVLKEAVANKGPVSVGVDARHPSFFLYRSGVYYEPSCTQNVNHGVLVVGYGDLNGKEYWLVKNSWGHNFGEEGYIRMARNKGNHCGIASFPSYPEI

The compounds below were run against Recombinant human cathepsin S (CatS) (Homo sapiens, UniProt P25774) (assay: biochemical).

| SMILES | IC50 [µM] |
| --- | --- |
| CC(=O)N1CCN(CC(O)Cn2nc(-c3ccc(C(F)(F)F)c(SCCN4CCCCC4)c3)c3c2CCN(S(C)(=O)=O)C3)CC1 (stereo not shown) [Example 543, 1-(4-Acetylpiperazin-1-yl)-3-[5-(methylsulfonyl)-3-{3-[(2-piperidin-1-ylethyl)sulfanyl]-4-(trifluoromethyl)phenyl}-4,5,6,7-tetrahydro-1H-pyrazolo[4,3-c]pyridin-1-yl]propan-2-ol] | 0.34 |
| O=C(CO)N1CCc2c(c(-c3ccc(C(F)(F)F)c(SCCN4CCC(F)(F)C4)c3)nn2CC(O)CN2CCC(N3CCCC3=O)CC2)C1 (stereo not shown) [Example 241, 1-[1-(3-{3-[3-{[2-(3,3-Difluoropyrrolidin-1-yl)ethyl]sulfanyl}-4-(trifluoromethyl)phenyl]-5-(hydroxyacetyl)-4,5,6,7-tetrahydro-1H-pyrazolo[4,3-c]pyridin-1-yl}-2-hydroxypropyl)piperidin-4-yl]pyrrolidin-2-one] | 0.03 |
| OC(CN1CCC(O)(c2ccccn2)CC1)Cn1nc(-c2ccc(C(F)(F)F)c(SCCN3CCC(F)(F)C3)c2)c2c1CCNC2 (stereo not shown) [Example 507, 1-(3-{3-[3-{[2-(3,3-Difluoropyrrolidin-1-yl)ethyl]sulfanyl}-4-(trifluoromethyl)phenyl]-4,5,6,7-tetrahydro-1H-pyrazolo[4,3-c]pyridin-1-yl}-2-hydroxypropyl)-4-pyridin-2-ylpiperidin-4-ol] | 1.07 |
| CCN1CCCC1CNCCSc1cc(-c2nn(CCCN3CCC(N4CCCC4=O)CC3)c3c2CN(S(C)(=O)=O)CC3)ccc1C(F)(F)F (stereo not shown) [Example 50, 1-(1-{3-[3-(3-{2-[(1-Ethyl-pyrrolidin-2-ylmethyl)-amino]-ethylsulfanyl}-4-trifluoromethyl-phenyl)-5-methanesulfonyl-4,5,6,7-tetrahydro-pyrazolo[4,3-c]pyridin-1-yl]-propyl}-piperidin-4-yl)-pyrrolidin-2-one] | 1.3 |
| CS(=O)(=O)N1CCc2c(c(-c3ccc(C(F)(F)F)c(SCCN4CCCC(F)(F)C4)c3)nn2C[C@@H](O)CN2CCOCC2)C1 [Example 513, (2S)-1-{3-[3-{[2-(3,3-Difluoropiperidin-1-yl)ethyl]sulfanyl}-4-(trifluoromethyl)phenyl]-5-(methylsulfonyl)-4,5,6,7-tetrahydro-1H-pyrazolo[4,3-c]pyridin-1-yl}-3-morpholin-4-ylpropan-2-ol] | 0.17 |
| NC(=O)C1CCN(C[C@H](O)Cn2nc(-c3ccc(C(F)(F)F)c(SCCN4CCC(F)CC4)c3)c3c2CCNC3)CC1 [Example 323, 1-[(2S)-3-{3-[3-{[2-(4-Fluoropiperidin-1-yl)ethyl]sulfanyl}-4-(trifluoromethyl)phenyl]-4,5,6,7-tetrahydro-1H-pyrazolo[4,3-c]pyridin-1-yl}-2-hydroxypropyl]piperidine-4-carboxamide] | 3.18 |
| CS(=O)(=O)N1CCc2c(c(-c3ccc(C(F)(F)F)c(SCCN4CCOCC4)c3)nn2CC(O)CN2CCC(Oc3ncccn3)CC2)C1 (stereo not shown) [Example 740, 1-[5-(Methylsulfonyl)-3-{3-[(2-morpholin-4-ylethyl)sulfanyl]-4-(trifluoromethyl)phenyl}-4,5,6,7-tetrahydro-1H-pyrazolo[4,3-c]pyridin-1-yl]-3-[4-(pyrimidin-2-yloxy)piperidin-1-yl]propan-2-ol] | 0.12 |
| CS(=O)(=O)N1CCc2c(c(-c3ccc(Cl)c(SCc4ccco4)c3)nn2CCCN2CCOCC2)C1 [Example 131, 3-[4-Chloro-3-(furan-2-ylmethylsulfanyl)-phenyl]-5-methanesulfonyl-1-(3-morpholin-4-yl-propyl)-4,5,6,7-tetrahydro-1H-pyrazolo[4,3-c]pyridine] | 1.25 |
| CS(=O)(=O)N1CCc2c(c(-c3ccc(C(F)(F)F)c(SCC(=O)N4CCCC4)c3)nn2CCCN2CCC(N3CCCC3=O)CC2)C1 [Example 92, 1-[1-(3-{5-Methanesulfonyl-3-[3-(2-oxo-2-pyrrolidin-1-yl-ethylsulfanyl)-4-trifluoromethyl-phenyl]-4,5,6,7-tetrahydro-pyrazolo[4,3-c]pyridin-1-yl}-propyl)-piperidin-4-yl]-pyrrolidin-2-one] | 0.06 |
| CS(=O)(=O)N1CCc2c(c(-c3ccc(C(F)(F)F)c(SCCN4CCC(O)CC4)c3)nn2CCCN2CCC(N3CCCC3=O)CC2)C1 [Example 4, 1-{1-[3-(3-{3-[2-(4-Hydroxy-piperidin-1-yl)-ethylsulfanyl]-4-trifluoromethyl-phenyl}-5-methanesulfonyl-4,5,6,7-tetrahydro-pyrazolo[4,3-c]pyridin-1-yl)-propyl]-piperidin-4-yl}-pyrrolidin-2-one] | 0.34 |
| CC(=O)NC1CCN(C[C@H](O)Cn2nc(-c3ccc(C(F)(F)F)c(SCCN4CC[C@H](F)C4)c3)c3c2CCN(S(C)(=O)=O)C3)CC1 [Example 606, N-{1-[(2S)-3-{3-[3-({2-[(3S)-3-Fluoropyrrolidin-1-yl]ethyl}sulfanyl)-4-(trifluoromethyl)phenyl]-5-(methylsulfonyl)-4,5,6,7-tetrahydro-1H-pyrazolo[4,3-c]pyridin-1-yl}-2-hydroxypropyl]piperidin-4-yl}acetamide] | 0.35 |
| CC1(C)CCN(CC(O)Cn2nc(-c3ccc(C(F)(F)F)c(SCCNS(C)(=O)=O)c3)c3c2CCN(S(C)(=O)=O)C3)CC1 (stereo not shown) [Example 516, N-(2-{[5-{1-[3-(4,4-Dimethylpiperidin-1-yl)-2-hydroxypropyl]-5-(methylsulfonyl)-4,5,6,7-tetrahydro-1H-pyrazolo[4,3-c]pyridin-3-yl}-2-(trifluoromethyl)phenyl]sulfanyl}ethyl)methanesulfonamide] | 0.36 |
| CC(C)(O)C1CCN(CC(O)Cn2nc(-c3ccc(C(F)(F)F)c(SCCN4CCCC4)c3)c3c2CCN(S(C)(=O)=O)C3)CC1 (stereo not shown) [Example 548, 1-[4-(1-Hydroxy-1-methylethyl)piperidin-1-yl]-3-[5-(methylsulfonyl)-3-{3-[(2-pyrrolidin-1-ylethyl)sulfanyl]-4-(trifluoromethyl)phenyl}-4,5,6,7-tetrahydro-1H-pyrazolo[4,3-c]pyridin-1-yl]propan-2-ol] | 0.21 |
| N#Cc1ccccc1N1CCN(CC(O)Cn2nc(-c3ccc(C(F)(F)F)c(SCC(=O)N4CCOCC4)c3)c3c2CCN(C(=O)CO)C3)CC1 (stereo not shown) [Example 748, 2-(4-{2-Hydroxy-3-[5-(hydroxyacetyl)-3-{3-[(2-morpholin-4-yl-2-oxoethyl)sulfanyl]-4-(trifluoromethyl)phenyl}-4,5,6,7-tetrahydro-1H-pyrazolo[4,3-c]pyridin-1-yl]propyl}piperazin-1-yl)benzonitrile] | 0.01 |
| CS(=O)(=O)N1CCc2c(c(-c3ccc(C(F)(F)F)c(SCCN4CCCC5CCCCC54)c3)nn2CCCN2CCC(N3CCCC3=O)CC2)C1 (stereo not shown) [Example 12, 1-{1-[3-(5-Methanesulfonyl-3-{3-[2-(octahydro-quinolin-1-yl)-ethylsulfanyl]-4-trifluoromethyl-phenyl}-4,5,6,7-tetrahydro-pyrazolo[4,3-c]pyridin-1-yl)-propyl]-piperidin-4-yl}-pyrrolidin-2-one] | 0.14 |
| CS(=O)(=O)N1CCc2c(c(-c3ccc(C(F)(F)F)c(SCC(=O)N4CCCCC4)c3)nn2CC(O)CN2CCCCC2)C1 (stereo not shown) [Example 376, 1-[5-(Methylsulfonyl)-3-{3-[(2-oxo-2-piperidin-1-ylethyl)sulfanyl]-4-(trifluoromethyl)phenyl}-4,5,6,7-tetrahydro-1H-pyrazolo[4,3-c]pyridin-1-yl]-3-piperidin-1-ylpropan-2-ol] | 0.15 |
